Experimental findings from US9115061B2, “Naphthalene-based inhibitors of anti-apoptotic proteins” (BURNHAM INSTITUTE FOR MEDICAL RESEARCH, priority 2007, dated 2015) are described below.

By UniProt entry, the sequences of proteins in these tests, tags left out. Where a name states a change or a piece, a line headed by the entry shows the natural chain unless it says otherwise. Residues count along the entry.
UniProt Q07817, 1-209: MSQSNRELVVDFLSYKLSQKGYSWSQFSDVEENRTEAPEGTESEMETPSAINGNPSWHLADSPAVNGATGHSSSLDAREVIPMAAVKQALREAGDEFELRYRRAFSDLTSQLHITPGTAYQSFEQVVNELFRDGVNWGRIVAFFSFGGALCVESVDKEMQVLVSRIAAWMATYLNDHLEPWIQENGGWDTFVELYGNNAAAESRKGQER
UniProt Q07817, whole entry: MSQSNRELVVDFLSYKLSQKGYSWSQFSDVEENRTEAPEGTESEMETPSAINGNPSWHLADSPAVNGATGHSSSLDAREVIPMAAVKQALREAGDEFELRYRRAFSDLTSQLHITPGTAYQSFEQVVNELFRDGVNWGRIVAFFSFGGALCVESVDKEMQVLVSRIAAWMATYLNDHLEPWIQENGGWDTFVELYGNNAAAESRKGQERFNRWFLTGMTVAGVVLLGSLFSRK

One test concerns the target GST-BCL-XL ΔTM protein (Homo sapiens (Human), UniProt Q07817). As to the kind of experiment: Competitive fluorescence polarization assay (FITC-Bak BH3 peptide). Type of test: binding. The procedure: For competitive binding assays, 100 nM GST-BCL-XL ΔTM protein was preincubated with the tested compound at varying concentrations in 47.5 μL PBS (pH=7.4) in 96-well black plates at room temperature for 10 min, then 2.5 μL of 100 nM FITC-labeled Bak BH3 peptide was added to produce a final volume of 50 μL. The wild-type and mutant Bak BH3 peptides were included in each assay plate as positive and negative controls, respectively.
IC50 was determined by fitting the experimental data to a sigmoidal dose-response nonlinear regression model (SigmaPlot 10.0.1, Systat Software, Inc., San Jose, Calif., USA). Data reported are mean of three independent experiments ±standard error (SE). […] Fluorescence polarization was measured after 10 min.

In another test the target is BCL-XL (Homo sapiens (Human), UniProt Q07817). As to the kind of experiment: Isothermal titration calorimetry (ITC). Type of test: binding. As for the experimental part: Titrations were performed using a VP-ITC or ITC200 calorimeter from Microcal (Northampton, Mass.). BCL-XL was used at concentrations between 25 and 100 μM in 20 mM sodium phosphate buffer (pH 7.4) and 5-10% DMSO. Titrants were used at concentrations 10-15× of the protein in the same buffer. Titrations were carried out at 25° C. Data were analyzed using Microcal Origin software provided by the ITC manufacturer (Microcal, Northampton, Mass.).

A further test has as its system PC3ML cells. As to the kind of experiment: Cell viability, ATP-LITE assay. The test is classed as cell-based, human. The procedure:
The activity of the compounds against human cancer cell lines (PC3ML, H460, H1299, RS11846) were assessed by using the ATP-LITE assay (PerkinElmer). All cells were seeded in either F12 or RPMI1640 medium with 5 mM L-glutamine supplemented with 5% fetal bovine serum (Mediatech Inc.), penicillin and streptomycin (Omega). For maintenance, cells were cultured in 5% FBS. Cells plated into 96 well plates at varying initial densities depending on doubling time. H460 and H1299 plated at 2000 cells/well, A549 and PC3 at 3000 cells/well, and RS118456S at 10,000 cells/well. Compounds were diluted to final concentrations with 0.1% DMSO. Prior to dispensing compounds onto cells, fresh 5% media was placed into wells. Administration of compounds occurred 24 hours after seeding into the fresh media. Cell viability was evaluated using ATP-LITE reagent (PerkinElmer) after 72 hours of treatment. Data were normalized to the DMSO control-treated cells using Prism version 5.01 (Graphpad Software).

On to `Cc1ccc(CC(=O)c2c(O)c(O)cc3c(O)c(-c4c(C)cc5c(C(=O)Cc6ccc(C)cc6)c(O)c(O)cc5c4O)c(C)cc23)cc1` [Compound XII, 1,1′-(1,1′,6,6′,7,7′-hexahydroxy-3,3′-dimethyl-2,2′-binaphthyl-5,5′-diyl)bis(2-p-tolylethanone)], for which the EC50 – broadly, the concentration giving half of the maximal effect – on GST-BCL-XL ΔTM protein turned out to be 320 nM. Besides, on BCL-XL, the affinity, expressed as Kd, was 40 nM and the “times more potent than apogossypol, Kd ITC BCL-XL” value was 40 times. Moreover, the “fold more potent than apogossypol, PC3ML EC50” value in the test with PC3ML cells is 2-5 fold.
